Experimental data taken from ChEMBL document CHEMBL1149252, “Synthesis and structure-activity relationships of 4-alkynyloxy phenyl sulfanyl, sulfinyl, and sulfonyl alkyl hydroxamates as tumor necrosis factor-alpha converting enzyme and matrix metalloproteinase inhibitors” (J Med Chem, 2004).

Chains of the proteins cited; added tags and fusions are not shown. Lines headed by an entry give the natural chain unless they say otherwise; changes in a name come on top.
UniProt P78536: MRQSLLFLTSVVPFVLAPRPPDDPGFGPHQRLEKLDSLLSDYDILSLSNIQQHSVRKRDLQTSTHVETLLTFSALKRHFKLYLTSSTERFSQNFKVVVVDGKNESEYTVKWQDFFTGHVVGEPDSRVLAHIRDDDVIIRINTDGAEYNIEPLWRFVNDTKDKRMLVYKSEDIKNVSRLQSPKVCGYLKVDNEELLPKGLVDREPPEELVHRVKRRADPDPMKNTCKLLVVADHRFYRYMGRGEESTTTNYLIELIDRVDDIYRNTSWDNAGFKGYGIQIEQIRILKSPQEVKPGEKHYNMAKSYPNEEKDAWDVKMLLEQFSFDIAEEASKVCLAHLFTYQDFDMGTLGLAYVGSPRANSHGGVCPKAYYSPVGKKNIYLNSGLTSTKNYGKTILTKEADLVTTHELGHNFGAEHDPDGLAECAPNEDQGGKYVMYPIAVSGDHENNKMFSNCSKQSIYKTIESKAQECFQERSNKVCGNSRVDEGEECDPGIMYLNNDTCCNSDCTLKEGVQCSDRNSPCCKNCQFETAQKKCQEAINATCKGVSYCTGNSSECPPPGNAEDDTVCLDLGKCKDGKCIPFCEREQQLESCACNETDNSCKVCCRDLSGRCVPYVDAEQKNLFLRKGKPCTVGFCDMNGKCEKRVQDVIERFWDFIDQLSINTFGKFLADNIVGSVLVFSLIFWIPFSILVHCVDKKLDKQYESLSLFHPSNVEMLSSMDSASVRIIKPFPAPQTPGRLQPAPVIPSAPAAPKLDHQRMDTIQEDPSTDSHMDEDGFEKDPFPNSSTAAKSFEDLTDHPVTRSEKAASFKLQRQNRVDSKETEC

Target: Disintegrin and metalloproteinase domain-containing protein 17 (Homo sapiens, UniProt P78536)

CC#CCOc1ccc([S@@+]([O-])[C@H](C(=O)NO)C(C)C)cc1
IC50: 48 nM
